# Measurements taken from publication PMC10133546, “Simultaneous determination of multiple components in rat plasma by UHPLC-sMRM for pharmacokinetic studies after oral administration of Qingjin Yiqi Granules” (Frontiers in Pharmacology, 2023).
# How the values were obtained:
# [1] = Stability of analytes in rat plasma (auto-sampler, freeze-thaw, room temperature, long-term); conditions: for Room temperature for 24 h Accuracy (%): room temperature 24 h; for Freeze thaw cycles Accuracy (%): three freeze-thaw cycles; for Autosampler for 24 h Accuracy (%): autosampler 24 h
# [2] = Stability of the working solution (4°C for 1 month); assay type: physicochemical
# [3] = Pharmacokinetic study in rat plasma after oral administration of QJYQ (UHPLC-sMRM); assay type: in vivo, Sprague-Dawley rats; conditions: oral QJYQ 3.15 g/kg
# Experimental: Exion LC AD tandem Blueline 3500 triple quadrupole mass spectrometer (AB SCIEX, Framingham, MA, United States) was used to thirty-three compounds in rat plasma. […] The whole detailed parameters of sMRM were obtained in Supplementary Table S1.
# Rat plasma (100 μL) was mixed with 10% formic acid (10 μL) and vortexed for 1 min at room temperature. ISs (10 μL) and methanol/acetonitrile (1/1, v/v) (400 μL) were added and vortexed for 5 min, then centrifuged for 10 min at 14,000 rpm and 4°C. The transported supernatant was condensed to dryness under the flow of nitrogen gas. The dried residue was reconstituted with 70% methanol (100 μL) by vortex-mixing for 5 min and centrifuging at 14,000 rpm for 10 min. Last, 2 μL of the solution were injected into the UHPLC-sMRM system.
# The pharmacokinetic study was approved by the Animal Ethics Committee of Tianjin University of Traditional Chinese Medicine (TCM-LAEC2021228). Ten male Sprague-Dawley rats (weight 220–240 g) was kept at the animal center of Tianjin University of Traditional Chinese Medicine (Tianjin, China). […] The sample was transferred right away following a 10 min period of centrifugation at 7000 rpm and 4°C. All plasma samples were frozen and stored at −80°C.
# All the pharmacokinetic parameters were calculated using the DAS 1.0 software (Drug and Statistics 1.0, Medical College of Wannan, China). Pharmacokinetic parameters include the maximum drug concentration in plasma (Cmax), the time to achieve maximum drug concentration (Tmax), the area under the plasma concentration-time curve (AUC), elimination half-life (T1/2), and mean residence time (MRT). The pharmacokinetic parameters were computed using the non-compartmental model. All data are expressed as mean ± standard deviation (SD). GraphPad Prism 8.0 (GraphPad Software Inc., La Jolla, CA, United States) software was used to draw the drug-time curve.
compound,measurement,setting,value
CC(=O)O[C@H]1[C@H](O[C@H]2CC[C@]34C[C@]35CC[C@]3(C)[C@@H]([C@@]6(C)CC[C@@H](C(C)(C)O)O6)[C@@H](O)C[C@@]3(C)[C@@H]5C[C@H](O[C@@H]3O[C@H](CO)[C@@H](O)[C@H](O)[C@H]3O)[C@H]4C2(C)C)OC[C@@H](O)[C@@H]1O [astragaloside II(IS)],Room temperature for 24 h Accuracy (%),[1]; concentration 100 ng/mL,102.0%
same,Freeze thaw cycles Accuracy (%),[1]; concentration 100 ng/mL,105.0%
CC(C)(O[C@@H]1O[C@H](CO)[C@@H](O)[C@H](O)[C@H]1O)[C@@H]1CC[C@](O)(CO)[C@H]2CC(=O)[C@@](C)(O)[C@@H]2C1 [atractyloside A],Freeze thaw cycles Accuracy (%),[1]; 100 ng/mL,101.0%
same,Freeze thaw cycles Accuracy (%),[1]; 500 ng/mL,102.0%
COc1c2c(cc3oc(CO)cc(=O)c13)O[C@H](C(C)(C)O)C2 [cimifugin],Working solution Accuracy (%),[2]; 100 ng/mL,101.0%
same,Room temperature for 24 h Accuracy (%),[1]; 12.5 ng/mL,95.6%
O=C(/C=C/c1ccc(O)c(O)c1)O[C@H]1[C@H](O)C[C@](O)(C(=O)O)C[C@H]1O [cryptochlorogenic acid],Room temperature for 24 h Accuracy (%),[1]; 100 ng/mL,102.0%
CC(C)=CCC[C@](C)(O)[C@H]1CC[C@]2(C)[C@@H]1[C@H](O)C[C@@H]1[C@@]3(C)CC[C@H](O)C(C)(C)[C@@H]3[C@@H](O[C@@H]3O[C@H](CO)[C@@H](O)[C@H](O)[C@H]3O[C@@H]3O[C@H](CO)[C@@H](O)[C@H](O)[C@H]3O)C[C@]12C [ginsenoside Rf],Room temperature for 24 h Accuracy (%),[1]; 50 ng/mL,92.7%
same,−80°C for 1month Accuracy (%),"[1]; 100 ng/mL, −80°C 1 month",105.0%
same,Autosampler for 24 h Accuracy (%),[1]; 500 ng/mL,106.0%
same,Freeze thaw cycles Accuracy (%),[1]; 500 ng/mL,106.0%
CC(C)=CCC[C@](C)(O)[C@H]1CC[C@]2(C)[C@@H]1[C@H](O)C[C@@H]1[C@@]3(C)CC[C@H](O)C(C)(C)[C@@H]3[C@@H](O[C@@H]3O[C@H](CO)[C@@H](O)[C@H](O)[C@H]3O)C[C@]12C [ginsenoside Rh1],Working solution Accuracy (%),[2]; concentration 200 ng/mL,107.0%
same,Working solution Accuracy (%),[2]; concentration 500 ng/mL,107.0%
same,Freeze thaw cycles Accuracy (%),[1]; 50 ng/mL,101.0%
same,Room temperature for 24 h Accuracy (%),[1]; concentration 200 ng/mL,90.2%
same,Freeze thaw cycles Accuracy (%),[1]; concentration 200 ng/mL,101.0%
same,−80°C for 1month Accuracy (%),"[1]; −80°C for 1 month, concentration 200 ng/mL",101.0%
C[C@]1(OC(=O)/C=C/c2ccccc2)C[C@@H](O)[C@]2(O)C=CO[C@@H](O[C@@H]3O[C@H](CO)[C@@H](O)[C@H](O)[C@H]3O)[C@@H]21 [harpagoside],Working solution Accuracy (%),[2]; 100 ng/mL,101.0%
same,−80°C for 1month Accuracy (%),"[1]; 12.5 ng/mL, −80°C 1 month",102.0%
same,−80°C for 1month Accuracy (%),"[1]; 100 ng/mL, −80°C 1 month",95.4%
same,Autosampler for 24 h Accuracy (%),[1]; 500 ng/mL,102.0%
same,−80°C for 1month Accuracy (%),"[1]; 500 ng/mL, −80°C 1 month",99.1%
O=C(/C=C/c1ccc(O[C@@H]2O[C@H](CO)[C@@H](O)[C@H](O)[C@H]2O)cc1)c1ccc(O)cc1O [isoliquiritin],Working solution Accuracy (%),[2]; 100 ng/mL,98.1%
same,−80°C for 1month Accuracy (%),"[1]; 12.5 ng/mL, −80°C 1 month",105.0%
O=C1C[C@@H](c2ccc(O[C@@H]3O[C@H](CO)[C@@H](O)[C@H](O)[C@H]3O)cc2)Oc2cc(O)ccc21 [liquiritin],−80°C for 1month Accuracy (%),"[1]; 1.56 ng/mL, −80°C 1 month",104.0%
same,Freeze thaw cycles Accuracy (%),[1]; 12.5 ng/mL,104.0%
COc1ccc(-c2coc3cc(O[C@@H]4O[C@H](CO)[C@@H](O)[C@H](O)[C@H]4O)ccc3c2=O)cc1 [ononin],Autosampler for 24 h Accuracy (%),[1]; 1.56 ng/mL,106.0%
same,−80°C for 1month Accuracy (%),"[1]; 100 ng/mL, −80°C 1 month",95.4%
same,Freeze thaw cycles Accuracy (%),[1]; 500 ng/mL,106.0%
O=C(O)C=Cc1ccc(O)cc1 [p-Coumaric acid],Working solution Accuracy (%),[2]; 12.5 ng/mL,107.0%
COc1c(O)cc(O)c2c(=O)cc(-c3ccccc3)oc12 [wogonin],Freeze thaw cycles Accuracy (%),[1]; concentration 100 ng/mL,104.0%
COc1c(O[C@@H]2O[C@H](C(=O)O)[C@@H](O)[C@H](O)[C@H]2O)cc(O)c2c(=O)cc(-c3ccccc3)oc12 [wogonoside],Freeze thaw cycles Accuracy (%),[1]; 500 ng/mL,97.1%
harpagide,MRT,[3]; MRT type not specified,greater than 8 h
same,AUC(0-t),"[3]; n = 8, mean ± SD",693.87 ± 217.37 ng·h/mL
same,AUC(0-∞),"[3]; n = 8, mean ± SD",723.75 ± 209.89 ng·h/mL
same,Cmax,"[3]; n = 8, mean ± SD",79.38 ± 7.71 ng/mL
same,MRT (0-∞),"[3]; n = 8, mean ± SD",12.55 ± 1.09 h
same,MRT(0-t),"[3]; n = 8, mean ± SD",10.67 ± 1.23 h
same,T1/2,"[3]; n = 8, mean ± SD",7.62 ± 3.88 h
same,Tmax,"[3]; n = 8, mean ± SD",0.75 ± 0.16 h
same,Working solution Accuracy (%),[2]; 1.56 ng/mL,82.1%
same,Working solution Accuracy (%),[2]; 12.5 ng/mL,107.0%
same,Working solution Accuracy (%),[2]; 100 ng/mL,92.4%
same,Working solution Accuracy (%),[2]; 500 ng/mL,101.0%
same,Autosampler for 24 h Accuracy (%),[1]; 1.56 ng/mL,93.7%
same,Room temperature for 24 h Accuracy (%),[1]; 1.56 ng/mL,90.2%
same,Freeze thaw cycles Accuracy (%),[1]; 1.56 ng/mL,97.3%
same,−80°C for 1month Accuracy (%),"[1]; 1.56 ng/mL, −80°C 1 month",105.0%
same,Autosampler for 24 h Accuracy (%),[1]; 12.5 ng/mL,88.1%
same,Room temperature for 24 h Accuracy (%),[1]; 12.5 ng/mL,92.7%
same,Freeze thaw cycles Accuracy (%),[1]; 12.5 ng/mL,102.0%
same,−80°C for 1month Accuracy (%),"[1]; 12.5 ng/mL, −80°C 1 month",92.9%
same,Autosampler for 24 h Accuracy (%),[1]; 100 ng/mL,96.1%
same,Room temperature for 24 h Accuracy (%),[1]; 100 ng/mL,95.6%
same,Freeze thaw cycles Accuracy (%),[1]; 100 ng/mL,96.3%
same,−80°C for 1month Accuracy (%),"[1]; 100 ng/mL, −80°C 1 month",88.3%
same,Autosampler for 24 h Accuracy (%),[1]; 500 ng/mL,93.4%
same,Room temperature for 24 h Accuracy (%),[1]; 500 ng/mL,96.4%
same,Freeze thaw cycles Accuracy (%),[1]; 500 ng/mL,105.0%
same,−80°C for 1month Accuracy (%),"[1]; 500 ng/mL, −80°C 1 month",92.7%
isoliquiritin apioside,Working solution Accuracy (%),[2]; 1.56 ng/mL,96.2%
same,Working solution Accuracy (%),[2]; 12.5 ng/mL,98.1%
same,Working solution Accuracy (%),[2]; 100 ng/mL,97.6%
same,Working solution Accuracy (%),[2]; 500 ng/mL,100.0%
liquiritin apioside,AUC(0-t),"[3]; n = 8, mean ± SD",135.24 ± 23.80 ng·h/mL
same,AUC(0-∞),"[3]; n = 8, mean ± SD",140.73 ± 27.38 ng·h/mL
same,Cmax,"[3]; n = 8, mean ± SD",32.92 ± 4.54 ng/mL
same,MRT (0-∞),"[3]; n = 8, mean ± SD",8.04 ± 4.40 h
same,MRT(0-t),"[3]; n = 8, mean ± SD",6.15 ± 1.76 h
same,T1/2,"[3]; n = 8, mean ± SD",10.72 ± 7.42 h
same,Working solution Accuracy (%),[2]; 1.56 ng/mL,100.0%
same,Working solution Accuracy (%),[2]; 12.5 ng/mL,115.0%
same,Working solution Accuracy (%),[2]; 100 ng/mL,87.2%
same,Working solution Accuracy (%),[2]; 500 ng/mL,87.9%
same,Autosampler for 24 h Accuracy (%),[1]; 1.56 ng/mL,84.7%
same,Freeze thaw cycles Accuracy (%),[1]; 1.56 ng/mL,90.2%
same,−80°C for 1month Accuracy (%),"[1]; 1.56 ng/mL, −80°C 1 month",100.0%
same,Autosampler for 24 h Accuracy (%),[1]; 12.5 ng/mL,98.8%
same,Room temperature for 24 h Accuracy (%),[1]; 12.5 ng/mL,86.6%
same,Freeze thaw cycles Accuracy (%),[1]; 12.5 ng/mL,100.0%
same,−80°C for 1month Accuracy (%),"[1]; 12.5 ng/mL, −80°C 1 month",102.0%
same,Autosampler for 24 h Accuracy (%),[1]; 100 ng/mL,87.2%
same,Room temperature for 24 h Accuracy (%),[1]; 100 ng/mL,89.2%
same,Freeze thaw cycles Accuracy (%),[1]; 100 ng/mL,104.0%
same,−80°C for 1month Accuracy (%),"[1]; 100 ng/mL, −80°C 1 month",99.1%
same,Autosampler for 24 h Accuracy (%),[1]; 500 ng/mL,97.9%
same,Room temperature for 24 h Accuracy (%),[1]; 500 ng/mL,95.0%
same,Freeze thaw cycles Accuracy (%),[1]; 500 ng/mL,101.0%
same,−80°C for 1month Accuracy (%),"[1]; 500 ng/mL, −80°C 1 month",105.0%
